According to patent US20070243571A1, “Method for Measurement of Activity of Homocysteinethiolactone Hydrolyzing Enzyme” (priority 2004, published 2007):

Columns and labels:
[1] = tested on: HTL hydrolyzing enzyme; test: Measurement of hydrolyzing enzyme activity for HTL (DTNB rate assay, H-7170 analyzer); format: biochemical, human; details: substrate DL-HTL; for activity value of HTL hydrolyzing enzyme, No addition: Reagent 1(A): 0.5 mM CaCl2, pH 7.8, 37° C., no inhibitor; for activity value of HTL hydrolyzing enzyme, EDTA.2Na: Reagent 1(B): 2 mM EDTA; for activity value of HTL hydrolyzing enzyme, EDTA.2Na / activity value of HTL hydrolyzing enzyme, Physostigmine sulfate / activity value of HTL hydrolyzing enzyme, Neostigmine bromide: pH 7.8, 37° C.; for activity value of HTL hydrolyzing enzyme, Physostigmine sulfate: Reagent 1(C): 0.5 mM CaCl2, 0.1 mM physostigmine sulfate; for activity value of HTL hydrolyzing enzyme, Neostigmine bromide: Reagent 1(D): 0.5 mM CaCl2, 0.1 mM neostigmine bromide
Experimental: Hydrolyzing enzyme activity for HTL was measured with purified water and above-mentioned samples.
Reagent 1(A): SH-group detection solution; 0.2 M MOPS buffer containing 0.5 mM CaCl2 and 1.0 mM DTNB (pH 7.8).
Reagent 1(B): SH-group detection solution; 0.2 M MOPS buffer containing 2 mM EDTA and 1.0 mM DTNB (pH 7.8).
Reagent 1(C): SH-group detection solution; 0.2 M MOPS buffer containing 0.5 mM CaCl2, 0.1 mM physostigmine sulfate and 1.0 mM DTNB (pH 7.8).
Reagent 1(D): SH-group detection solution; 0.2 M MOPS buffer containing 0.5 mM CaCl2, 0.1 mM neostigmine bromide and 1.0 mM DTNB (pH 7.8).
Reagent 2: substrate solution; aqueous solution containing 125 mM DL-HTL (Tokyo Chemical Industry Co., Ltd).
For measurement of HTL hydrolyzing enzyme activity, H-7170 automatic analyzer (Hitachi, Ltd.) was used. Parameters for measurement were as follows.
(§1) Following the above parameters, purified water, 15 μl of a sample and 200 μl of reagent 1(A) or 1(B) or 1(C) or 1(D) was dispensed and mixed, and, after a certain length of time at a constant temperature (37° C., 5 min), 50 μl of reagent 2 was added and mixed to allow reaction to start. When reagent 2 was added to the mixture of the fraction containing serum, plasma, albumin or HDL and reagent 1(A), 1(C) or 1(D), increase in absorbance was detected which was due to the reaction of the SH-group detection reagent with DL-homocysteine, which has a free SH group, formed by hydrolysis of HTL.
(§2) The activity value of HTL hydrolyzing enzyme in each sample was calculated based on: the change in absorbance per unit of time (1 min) (ΔE) from 2-minute up to 4-minute time points after the addition of the substrate (reagent 2), the molecular extinction coefficient of 5-thio-2-nitrobenzoic acid at the wavelength of 480 nm, ε=2509, and the molecular extinction coefficient of the compound at the wavelength of 546 nm, ε=78.

[2] = tested on: HTL hydrolyzing enzyme; test: Measurement of hydrolyzing enzyme activity for TBL (DTNB rate assay, H-7170 analyzer); format: biochemical, human; details: substrate TBL; for activity value of HTL hydrolyzing enzyme for TBL, No addition: Reagent 1(A): 0.5 mM CaCl2, pH 7.2, 37° C., no inhibitor; for activity value of HTL hydrolyzing enzyme for TBL, EDTA.2Na: Reagent 1(B): 2 mM EDTA; for activity value of HTL hydrolyzing enzyme for TBL, EDTA.2Na / activity value of HTL hydrolyzing enzyme for TBL, Physostigmine sulfate / activity value of HTL hydrolyzing enzyme for TBL, Neostigmine bromide: pH 7.2, 37° C.; for activity value of HTL hydrolyzing enzyme for TBL, Physostigmine sulfate: Reagent 1(C): 0.5 mM CaCl2, 0.1 mM physostigmine sulfate; for activity value of HTL hydrolyzing enzyme for TBL, Neostigmine bromide: Reagent 1(D): 0.5 mM CaCl2, 0.1 mM neostigmine bromide
Experimental: Hydrolyzing enzyme activity for TBL was measured with above-mentioned samples and unprepared serum.
Reagent 1(A): SH-group detection solution; 0.2 M MOPS buffer containing 0.5 mM CaCl2 and 1.0 mM DTNB (pH 7.2).
Reagent 1(B): SH-group detection solution; 0.2 M MOPS buffer containing 2 mM EDTA and 1.0 mM DTNB (pH 7.2).
Reagent 1(C): SH-group detection solution; 0.2 M MOPS buffer containing 0.5 mM CaCl2, 0.1 mM physostigmine sulfate and 1.0 mM DTNB (pH 7.2).
Reagent 1(D): SH-group detection solution; 0.2 M MOPS buffer containing 0.5 mM CaCl2, 0.1 mM neostigmine bromide and 1.0 mM DTNB (pH 7.2).
Reagent 2: substrate solution; aqueous solution containing 125 mM TBL (Aldrich).
For measurement of hydrolyzing enzyme activity TBL, H-7170 automatic analyzer (Hitachi, Ltd.) was used. Parameters for measurement were as follows.
as §1, with “parameters,” for “parameters, purified water,”, “cholinesterase” for “albumin”, “1(A),” for “1(A), 1(C) or 1(D),”, “4-mercaptobutyric acid,” for “DL-homocysteine,”, “by” for “by hydrolysis”, “HTL hydrolyzing enzyme.” for “HTL.”
as §2, with “enzyme for TBL” for “enzyme”

Substance | activity value of HTL hydrolyzing enzyme, No addition [1] | activity value of HTL hydrolyzing enzyme, EDTA.2Na [1] | activity value of HTL hydrolyzing enzyme, Physostigmine sulfate [1] | activity value of HTL hydrolyzing enzyme, Neostigmine bromide [1] | activity value of HTL hydrolyzing enzyme for TBL, No addition [2] | activity value of HTL hydrolyzing enzyme for TBL, EDTA.2Na [2] | activity value of HTL hydrolyzing enzyme for TBL, Physostigmine sulfate [2] | activity value of HTL hydrolyzing enzyme for TBL, Neostigmine bromide [2] | activity value of HTL hydrolyzing enzyme for TBL, No addition ([2]; listed as A-1653)
HSA 05418: Human albumin (05418, Fluca) dissolved in purified water, 5% human albumin solution | 31 | 30 | 28 | 31 | 8 | 8 | 6 | 7 | 
HSA 126654: Human albumin (126654, Calbiochem) dissolved in purified water, 5% human albumin solution | 19 | 17 | 17 | 21 | 1 | 1 | 0 | 1 | 
HSA A-1653: Human albumin (A-1653, Sigma) dissolved in purified water, 5% human albumin solution | 26 | 22 | 25 | 20 | 32 | 29 | 2 | 2 | observed
HSA A-1887: Human albumin (A-1887, Sigma) dissolved in purified water, 5% human albumin solution | 28 | 25 | 26 | 27 | 7 | 8 | 4 | 5 | 
HSA A-3782: Human albumin (A-3782, Sigma) dissolved in purified water, 5% human albumin solution | 26 | 23 | 28 | 28 | 2 | 2 | 2 | 2 | 
